## Antibody variant affinities, Ab-14 light chain, assay B

All variants were tested on one target, the spike HR2 peptide PDVDLGDISGINAS (SARS-CoV-2).

The variants keep the heavy chain, the linker and the frameworks of Ab-14 (scFv order VH, three GGGGS repeats, VL).
VH: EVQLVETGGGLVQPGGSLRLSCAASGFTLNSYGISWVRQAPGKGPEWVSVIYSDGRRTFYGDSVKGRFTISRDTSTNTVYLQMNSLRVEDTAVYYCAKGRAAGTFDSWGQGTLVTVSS
VL: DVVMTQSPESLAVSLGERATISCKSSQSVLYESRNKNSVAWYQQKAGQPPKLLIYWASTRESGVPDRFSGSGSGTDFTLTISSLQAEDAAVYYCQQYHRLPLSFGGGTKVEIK

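The starting antibody came from a phage panning campaign against this peptide. The variants were designed computationally from a first round of random CDR variants and then made and measured. Several design methods are mixed in this list. The assay is AlphaSeq: two haploid yeast populations carry antibody and antigen on their surface. Mating (16 h, 30 °C) was followed by selection of diploids and sequencing of their barcodes. The ratio of observed to expected reads was calibrated, replicate by replicate, on BCL2-family standards whose Kd was known from biolayer interferometry. The assay was run in six technical replicates.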

Each variant is given by its three light chain CDRs, as the data file delimits them; those of the parent are KSSQSVLYESRNKNSVA, WASTRES, QQYHRLPLS.
Variants here have more than six changes.
Numbers give log10(Kd / nM), so 0 is 1 nM and 3 is 1 µM. Smaller is tighter.
A mean of the replicates is given; it leaves out those without a signal.
"nd" marks a missing value. The strain was present, yet no cells mated with the target were sequenced in any replicate, which points to weak or no binding.
Three control strains display no target. For all light chain designs, 4% of the pairings with them gave a signal, with a median of 2.64 and one signal in twenty below 1.59, so weak values seen in few replicates may be background.
The range of this assay differs from that of the first round, and the authors advise against merging the two.
The parent sequence was in this pool as ten entries: three were never detected, three once, and four in most replicates, with averages from 0.34 to 2.37.
In the paper, a design with two or fewer of six values counts as a poor binder.

With TISGVMQQMTHSKSNVA / EVSTRLE / QQYVRLPLA the result was 0.20 (6 of 6 replicates).
With KISGYLQHESKNKNSVA / EMVNRES / QQYDRLPLS the result was 0.92 (6 of 6 replicates).
With HITYGMQVAGRHSKSIA / QAETREK / QQYDRLPLI the result was 1.20 (6 of 6 replicates).
With RILYEQFGNTYSVNNVA / QAHVRAY / QMYNRLPLS the result was 2.55 (4 of 6 replicates).
With ILSQSVLMGMHTKQNVA / QATMRFN / QQYHRLPFM the result was 1.30 (6 of 6 replicates).
With MVTQMAMSGMKNKRSVA / NAETREK / QQYHRLPLI the result was 1.54 (6 of 6 replicates).
With KIYQLGLGSQKIMRNIA / ETSTRCL / QSYQRLPLS the result was 0.85 (6 of 6 replicates).
With KLVQSELYESRQSNSVA / NASYREE / QQYHRLPLS the result was 0.18 (6 of 6 replicates).
With YMSSQAAQDRNQQYSIA / GVDYREK / QQYYHLPLS the result was 0.94 (6 of 6 replicates).
With KLPLATMVESVSKNNVA / ELSTRGS / QQYHRLPLS the result was 1.57 (4 of 6 replicates).
With KLSQSWPGEERNKNSVA / SASTREQ / QQYHRLPLS the result was 0.23 (6 of 6 replicates).
With HAYQSGLYESRNQNSVA / SASMRSS / QQYHRLPLS the result was 0.06 (6 of 6 replicates).
With KIQMWDNQVENQLGNVA / DASEYWE / QQYFQLPIS the result was 1.77 (6 of 6 replicates).
With QLGMVQDMTSKNKNSVA / EQSTREN / QQYHRLPLS the result was 1.58 (6 of 6 replicates).
With MMSQVTGSGTRHRNNVA / QTSTREP / QQYDRLPLV the result was 1.77 (6 of 6 replicates).
With MMSQVTGLGTRHRNNVA / QTETREP / QQYDRLPLV the result was 0.74 (6 of 6 replicates).
With KCSSSVLPESQNKNPVA / WASTREH / QQYGRLPLS the result was 0.53 (6 of 6 replicates).
With MISQLYNMGQFAINSVA / QASLRCN / QQYDRLPLT the result was 2.36 (2 of 6 replicates).
With TISQMFLGELRNRNSVA / QASTRES / QSYDRLPLS the result was 1.14 (6 of 6 replicates).
With KLFGGIPEQERIDYSIA / YGTLSEV / QQYDRLPLS the result was nd (0 of 6 replicates).
With KFFQSQLYEQRNQNSVA / SASTRED / QQYHRLPLS the result was 0.20 (6 of 6 replicates).
With KASPSEEYESRMKNSVA / MASTRYE / QQYHRLPLS the result was 1.38 (6 of 6 replicates).
With KLMCSMEYESRNTNSVA / NASTRES / QQYHRLPLS the result was 0.23 (6 of 6 replicates).
With NLAMALEQGILIKNNIA / SDNLREN / QQYERLPLI the result was 1.43 (6 of 6 replicates).
With KISGSYLYESRNWNSVA / EASQREQ / QQYHRLPLS the result was 0.08 (6 of 6 replicates).
With KVSQQGLYGSRNANSVA / NADTREQ / QQYHRLPLS the result was -0.28 (6 of 6 replicates).
With KLMQSLSGEPKDWYNVA / EAESATV / QDYARLPLM the result was nd (0 of 6 replicates).
With QMYPFGNAKGEGSNNVA / HVSTRAL / QQYFRLPLV the result was 0.33 (6 of 6 replicates).
With KLGMTLNQLMHKKNNVA / DLVNRET / QQYHRLPLS the result was 1.86 (5 of 6 replicates).
With RLSALSGIQSVERNSVA / QNSTREE / QQYDRLPLS the result was 2.03 (3 of 6 replicates).
With TLTQVTMVESYVKNSVA / QASTREE / QDYHRLPLS the result was 0.23 (6 of 6 replicates).
With MVTQMAMTGMTNKRSVA / NAEQRED / QQYHRLPLI the result was 0.59 (6 of 6 replicates).
With MLTRFNLENQGRSNNIA / DTNNVQE / QQYFRLPFA the result was 1.61 (6 of 6 replicates).
With HMSMITLGGMRHRNSVA / QMTTREN / QQYDHLPLS the result was 0.85 (6 of 6 replicates).
With MISQLYNFGTFAINSVA / QAETRCN / QQYDRLPLE the result was 1.85 (1 of 6 replicates).
With TISQMFLGESRNRNSVA / QASTRCS / QSYDRLPLS the result was 0.97 (6 of 6 replicates).
With TISQVMNTLTRHGNNVA / DLQEREE / QQYFRLPLE the result was 0.12 (6 of 6 replicates).
With TLSQSMDMTSRNVNSVA / DLTNRGN / QQYHRLPLS the result was 0.34 (6 of 6 replicates).
With KLSQITGHSLMSKNNVA / EMETREN / QQYDRLPLS the result was 1.12 (6 of 6 replicates).
With KLWMIFFEGQQELSAVA / NAGVLVQ / QQYNVLPLS the result was nd (0 of 6 replicates).
With YMSDSMQETIADANHIA / DGEARDV / QQYARLPLI the result was 0.77 (6 of 6 replicates).
With HISYSMQHLSKNKNSVA / NQQTREQ / QQYHMLPLS the result was 0.62 (6 of 6 replicates).
With HVSSMDMTDGGIKKSVA / DDKETER / QQYMRLPLS the result was 2.96 (5 of 6 replicates).
With SMGYALFHEDAKAKSIA / ENDVRVY / QQYAKLPLT the result was 1.23 (6 of 6 replicates).
With YMSGQIDEGWNQQEAIA / QVTYKED / QQYYKLPLS the result was nd (0 of 6 replicates).
With KLYFSEEYESRNKNSVA / SASQRES / QQYHRLPLS the result was -0.11 (6 of 6 replicates).
With NMHNMCYQYENYGNSIA / QANLREN / QQYSRLPFT the result was 1.04 (6 of 6 replicates).
With NLSYLQGEPTNSVNNVA / QTSKRAP / QQYQRLPLC the result was 0.20 (6 of 6 replicates).
With KGSQWNLYESRNKNNVA / NASLREM / QQYHRLPLS the result was 3.02 (3 of 6 replicates).

Picked from the list: the 6 lowest averages where every replicate gave a value.

CDR-L1,CDR-L2,CDR-L3,"log10 Kd (nM), mean",detected
KVSQQGLYGSRNANSVA,NADTREQ,QQYHRLPLS,-0.28,6 of 6
KLYFSEEYESRNKNSVA,SASQRES,QQYHRLPLS,-0.11,6 of 6
HAYQSGLYESRNQNSVA,SASMRSS,QQYHRLPLS,0.06,6 of 6
KISGSYLYESRNWNSVA,EASQREQ,QQYHRLPLS,0.08,6 of 6
TISQVMNTLTRHGNNVA,DLQEREE,QQYFRLPLE,0.12,6 of 6
KLVQSELYESRQSNSVA,NASYREE,QQYHRLPLS,0.18,6 of 6

The measurements come from Li et al. 2023 (doi:10.1038/s41467-023-39022-2) through the FLAb antibody collection.